What was measured:
Conditions in all cases: exposure time: 72 h
FT3469 [1] = normal neural stem cell line; experiment: surviving fraction (nuclei count normalised to DMSO); higher = more cells surviving (less toxic)
E21 [2] = patient-derived glioblastoma stem cells of mesenchymal subtype; experiment: as above
E34 [3] = patient-derived glioblastoma stem cells of proneural subtype; experiment: as above
E57 [4] = patient-derived glioblastoma stem cells of mesenchymal subtype; experiment: as above
E13 [5] = patient-derived glioblastoma stem cells of classical subtype; experiment: as above
E31 [6] = patient-derived glioblastoma stem cells of proneural subtype; experiment: as above
E28 [7] = patient-derived glioblastoma stem cells of classical subtype; experiment: as above
FT3469 [8] = experiment: phenotypic distance (Euclidean, principal components) from DMSO controls (arbitrary units); higher = stronger morphological change
Method: (§1)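 Validation of 211 repurchased screening hits by 7-8 point semi-log dose response (about 3-3000 nM) on six patient-derived glioblastoma stem cell lines (GCGR E13, E21, E28, E31, E34, E57) and a normal neural stem cell line (FT3469), grown on laminin in 384-well plates and exposed for 72 h (0.1% DMSO). Cell Painting read-out: the DMSO-normalised nuclei count gives the surviving fraction, and the phenotypic distance is the Euclidean distance in 20 principal components of CellProfiler features relative to the plate DMSO controls (StratoMineR). One well per dose (n=1), 6 fields of view.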

E21 [9] = experiment: as above
Method: as §1

E34 [10] = experiment: as above
Method: as §1

E57 [11] = experiment: as above
Method: as §1

E13 [12] = experiment: as above
Method: as §1

E31 [13] = experiment: as above
Method: as §1

E28 [14] = experiment: as above
Method: as §1
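For phenotypic distance (Euclidean, principal components) from DMSO controls in this document: cell Painting imaging in 384-well plates, CellProfiler features reduced to at least 20 principal components, Euclidean distance versus same-plate DMSO vehicle wells (0.1% v/v), median over six images per well.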
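For surviving fraction (nuclei count normalised to DMSO) in this document: nuclei counted by high-content imaging of Hoechst-stained cells in laminin-coated 384-well plates, relative to 0.1% DMSO vehicle wells, with staurosporine as cell-death control.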

COc1cc(Br)c(C[N+]2(CCOCCC3CCC4CC3C4(C)C)CCOCC2)cc1OC (stereo not drawn) [Pinaverium bromide]
surviving fraction (FT3469 [1]; 4.1 nM): 1.13 | surviving fraction (FT3469 [1]; 12.3 nM): 1.14 | surviving fraction (FT3469 [1]; 37 nM): 1.03 | surviving fraction (FT3469 [1]; 111.1 nM): 1.11 | surviving fraction (FT3469 [1]; 333.3 nM): 1.04 | surviving fraction (FT3469 [1]; 1000 nM): 1.01 | surviving fraction (FT3469 [1]; 3000 nM): 0.864 | surviving fraction (E21 [2]; 4.1 nM): 1.1 | surviving fraction (E21 [2]; 12.3 nM): 1 | surviving fraction (E21 [2]; 37 nM): 0.981 | surviving fraction (E21 [2]; 111.1 nM): 0.837 | surviving fraction (E21 [2]; 333.3 nM): 0.931 | surviving fraction (E21 [2]; 1000 nM): 0.89 | surviving fraction (E21 [2]; 3000 nM): 0.786 | surviving fraction (E34 [3]; 4.1 nM): 1.11 | surviving fraction (E34 [3]; 12.3 nM): 1.1 | surviving fraction (E34 [3]; 37 nM): 0.886 | surviving fraction (E34 [3]; 111.1 nM): 0.988 | surviving fraction (E34 [3]; 333.3 nM): 0.931 | surviving fraction (E34 [3]; 1000 nM): 1.01 | surviving fraction (E34 [3]; 3000 nM): 1.12 | surviving fraction (E57 [4]; 4.1 nM): 1.01 | surviving fraction (E57 [4]; 12.3 nM): 1.01 | surviving fraction (E57 [4]; 37 nM): 1.02 | surviving fraction (E57 [4]; 111.1 nM): 1.05 | surviving fraction (E57 [4]; 333.3 nM): 1.07 | surviving fraction (E57 [4]; 1000 nM): 1.06 | surviving fraction (E57 [4]; 3000 nM): 1.04 | surviving fraction (E13 [5]; 4.1 nM): 0.944 | surviving fraction (E13 [5]; 12.3 nM): 0.965 | surviving fraction (E13 [5]; 37 nM): 1.06 | surviving fraction (E13 [5]; 111.1 nM): 1.08 | surviving fraction (E13 [5]; 333.3 nM): 0.931 | surviving fraction (E13 [5]; 1000 nM): 0.92 | surviving fraction (E13 [5]; 3000 nM): 0.775 | surviving fraction (E31 [6]; 4.1 nM): 0.859 | surviving fraction (E31 [6]; 12.3 nM): 0.871 | surviving fraction (E31 [6]; 37 nM): 0.915 | surviving fraction (E31 [6]; 111.1 nM): 0.976 | surviving fraction (E31 [6]; 333.3 nM): 1.05 | surviving fraction (E31 [6]; 1000 nM): 0.93 | surviving fraction (E31 [6]; 3000 nM): 0.615 | surviving fraction (E28 [7]; 4.1 nM): 1.11 | surviving fraction (E28 [7]; 12.3 nM): 1.09 | surviving fraction (E28 [7]; 37 nM): 1.07 | surviving fraction (E28 [7]; 111.1 nM): 0.952 | surviving fraction (E28 [7]; 333.3 nM): 0.992 | surviving fraction (E28 [7]; 1000 nM): 0.874 | surviving fraction (E28 [7]; 3000 nM): 0.596 | phenotypic distance (FT3469 [8]; 4.1 nM): 0.728 | phenotypic distance (FT3469 [8]; 12.3 nM): 1.05 | phenotypic distance (FT3469 [8]; 37 nM): 0.502 | phenotypic distance (FT3469 [8]; 111.1 nM): 0.754 | phenotypic distance (FT3469 [8]; 333.3 nM): 0.722 | phenotypic distance (FT3469 [8]; 1000 nM): 1.16 | phenotypic distance (FT3469 [8]; 3000 nM): 1.56 | phenotypic distance (E21 [9]; 4.1 nM): 0.789 | phenotypic distance (E21 [9]; 12.3 nM): 0.834 | phenotypic distance (E21 [9]; 37 nM): 0.736 | phenotypic distance (E21 [9]; 111.1 nM): 3.34 | phenotypic distance (E21 [9]; 333.3 nM): 2.01 | phenotypic distance (E21 [9]; 1000 nM): 1.99 | phenotypic distance (E21 [9]; 3000 nM): 3.26 | phenotypic distance (E34 [10]; 4.1 nM): 0.656 | phenotypic distance (E34 [10]; 12.3 nM): 0.768 | phenotypic distance (E34 [10]; 37 nM): 0.758 | phenotypic distance (E34 [10]; 111.1 nM): 0.83 | phenotypic distance (E34 [10]; 333.3 nM): 0.93 | phenotypic distance (E34 [10]; 1000 nM): 1.11 | phenotypic distance (E34 [10]; 3000 nM): 1.49 | phenotypic distance (E57 [11]; 4.1 nM): 0.441 | phenotypic distance (E57 [11]; 12.3 nM): 0.742 | phenotypic distance (E57 [11]; 37 nM): 0.328 | phenotypic distance (E57 [11]; 111.1 nM): 0.556 | phenotypic distance (E57 [11]; 333.3 nM): 0.795 | phenotypic distance (E57 [11]; 1000 nM): 1.34 | phenotypic distance (E57 [11]; 3000 nM): 2.4 | phenotypic distance (E13 [12]; 4.1 nM): 0.64 | phenotypic distance (E13 [12]; 12.3 nM): 0.313 | phenotypic distance (E13 [12]; 37 nM): 0.695 | phenotypic distance (E13 [12]; 111.1 nM): 0.681 | phenotypic distance (E13 [12]; 333.3 nM): 0.69 | phenotypic distance (E13 [12]; 1000 nM): 1.03 | phenotypic distance (E13 [12]; 3000 nM): 0.903 | phenotypic distance (E31 [13]; 4.1 nM): 0.516 | phenotypic distance (E31 [13]; 12.3 nM): 0.903 | phenotypic distance (E31 [13]; 37 nM): 0.304 | phenotypic distance (E31 [13]; 111.1 nM): 0.939 | phenotypic distance (E31 [13]; 333.3 nM): 1.76 | phenotypic distance (E31 [13]; 1000 nM): 2.44 | phenotypic distance (E31 [13]; 3000 nM): 1.9 | phenotypic distance (E28 [14]; 4.1 nM): 0.713 | phenotypic distance (E28 [14]; 12.3 nM): 0.923 | phenotypic distance (E28 [14]; 37 nM): 0.491 | phenotypic distance (E28 [14]; 111.1 nM): 0.713 | phenotypic distance (E28 [14]; 333.3 nM): 0.57 | phenotypic distance (E28 [14]; 1000 nM): 1.15 | phenotypic distance (E28 [14]; 3000 nM): 2.53
